Measurements as given in patent publication US8481532B2, “PDE-10 inhibitors” (EnVivo Pharmaceuticals, Inc., priority 2008, dated 2013).

Chains of the proteins cited; added tags and fusions are not shown. Residues count along the entry.
UniProt Q9Y233, 1-779 isoform Q9Y233-1: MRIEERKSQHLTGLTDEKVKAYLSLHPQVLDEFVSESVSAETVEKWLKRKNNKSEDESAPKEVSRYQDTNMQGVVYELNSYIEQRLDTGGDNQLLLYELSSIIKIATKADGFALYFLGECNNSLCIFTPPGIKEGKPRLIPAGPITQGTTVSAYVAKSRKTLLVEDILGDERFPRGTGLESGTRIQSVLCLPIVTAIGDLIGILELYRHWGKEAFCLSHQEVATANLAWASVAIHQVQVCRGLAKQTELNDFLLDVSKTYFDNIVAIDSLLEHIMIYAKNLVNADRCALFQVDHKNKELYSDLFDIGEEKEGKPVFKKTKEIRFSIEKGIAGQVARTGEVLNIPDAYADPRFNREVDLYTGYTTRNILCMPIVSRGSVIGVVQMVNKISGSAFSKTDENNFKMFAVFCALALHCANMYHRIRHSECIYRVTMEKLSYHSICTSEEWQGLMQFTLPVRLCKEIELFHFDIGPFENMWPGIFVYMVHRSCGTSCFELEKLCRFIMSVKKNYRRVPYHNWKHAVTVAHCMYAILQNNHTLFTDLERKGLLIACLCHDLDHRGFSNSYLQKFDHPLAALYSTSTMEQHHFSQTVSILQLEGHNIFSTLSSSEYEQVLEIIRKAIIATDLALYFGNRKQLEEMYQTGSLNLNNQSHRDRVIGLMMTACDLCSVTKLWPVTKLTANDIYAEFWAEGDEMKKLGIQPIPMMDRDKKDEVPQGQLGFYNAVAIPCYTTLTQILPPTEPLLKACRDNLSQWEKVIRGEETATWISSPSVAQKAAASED

Molecular target: Human PDE10A1 (Homo sapiens, UniProt Q9Y233)
Assay: hPDE10A1 Enzyme Inhibition ([3H]-cAMP scintillation assay)
Assay type: biochemical
Conditions: Human PDE10A1, [3H]-cAMP substrate, 20 minutes at 37° C.; read-out: hPDE10A1 IC50 Band
Protocol: • hPDE10A1 Enzyme Activity: […] samples of serially diluted Human PDE10A1 enzyme were incubated with 50 μl of [^3H]-cAMP for 20 minutes (at 37° C.). Reactions were carried out in Greiner 96 deep well 1 ml master-block. The enzyme was diluted in 20 mM Tris HCl pH7.4 and [^3H]-cAMP was diluted in 10 mM MgCl2, 40 mM Tris.HCl pH 7.4. The reaction was terminated by denaturing the PDE enzyme (at 70° C.) after which [^3H]-5′-AMP was converted to [^3H]-adenosine by adding 25 μl snake venom nucleotidase and incubating for 10 minutes (at 37° C.). Adenosine, being neutral, was separated from charged cAMP or AMP by the addition of 200 μl Dowex resin. Samples were shaken for 20 minutes then centrifuged for 3 minutes at 2,500 r.p.m. 50 μl of supernatant was removed and added to 200 μl of MicroScint-20 in white plates (Greiner 96-well Optiplate) and shaken for 30 minutes before reading on Perkin Elmer TopCount Scintillation Counter. • hPDE10A1 Enzyme Inhibition: To check inhibition profile 11 μl of serially diluted inhibitor was added to 50 μl of [^3H]-cAMP and 50 μl of diluted Human PDE10A1 and assay was carried out as in the enzyme activity assay. Data was analysed using Prism software (GraphPad Inc).

**Q.** For “(E)-2-(4-cyclohexylphenyl)-N′-(isoquinolin-5-ylmethylene)cyclopropanecarbohydrazide [Example 195]”, which IC50 is on record?
**A.** The IC50 was under 1000 nM.
